The test system of one test is Human tumor cells. Kind of test: Soft Agar Assay (anchorage-independent growth, colony count after MTT staining). The conditions noted are these: read-out: Soft Agar IC50; colony outgrowth 10-16 days at 37°C in 0.3% agarose. The procedure: Anchorage-independent growth is a characteristic of tumorigenic cell lines. Human tumor cells are suspended in growth medium containing 0.3% agarose and an indicated concentration of a farnesyl transferase inhibitor. The solution is overlayed onto growth medium solidified with 0.6% agarose containing the same concentration of farnesyl transferase inhibitor as the top layer. After the top layer is solidified, plates are incubated for 10-16 days at 37°C under 5% CO2 to allow colony outgrowth. After incubation, the colonies are stained by overlaying the agar with a solution of MTT (3-[4,5-dimethylthiazol-2-yl]-2,5-diphenyltetrazolium bromide, Thiazolyl blue) (1 mg/mL in PBS). Colonies can be counted and the IC50's can be determined.

The chains behind the UniProt entries cited, without tags or fusion partners.
UniProt P53610, whole entry: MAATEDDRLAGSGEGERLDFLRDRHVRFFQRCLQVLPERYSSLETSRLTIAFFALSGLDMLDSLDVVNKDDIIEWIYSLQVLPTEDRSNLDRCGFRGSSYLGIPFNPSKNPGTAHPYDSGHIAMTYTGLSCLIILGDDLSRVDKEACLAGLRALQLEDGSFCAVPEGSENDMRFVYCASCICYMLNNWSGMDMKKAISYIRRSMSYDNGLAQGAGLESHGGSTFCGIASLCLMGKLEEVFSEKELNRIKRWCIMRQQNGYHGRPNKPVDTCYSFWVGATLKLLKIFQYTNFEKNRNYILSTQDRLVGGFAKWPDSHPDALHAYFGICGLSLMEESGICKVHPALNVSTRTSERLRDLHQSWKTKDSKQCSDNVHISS
UniProt P49356, whole entry: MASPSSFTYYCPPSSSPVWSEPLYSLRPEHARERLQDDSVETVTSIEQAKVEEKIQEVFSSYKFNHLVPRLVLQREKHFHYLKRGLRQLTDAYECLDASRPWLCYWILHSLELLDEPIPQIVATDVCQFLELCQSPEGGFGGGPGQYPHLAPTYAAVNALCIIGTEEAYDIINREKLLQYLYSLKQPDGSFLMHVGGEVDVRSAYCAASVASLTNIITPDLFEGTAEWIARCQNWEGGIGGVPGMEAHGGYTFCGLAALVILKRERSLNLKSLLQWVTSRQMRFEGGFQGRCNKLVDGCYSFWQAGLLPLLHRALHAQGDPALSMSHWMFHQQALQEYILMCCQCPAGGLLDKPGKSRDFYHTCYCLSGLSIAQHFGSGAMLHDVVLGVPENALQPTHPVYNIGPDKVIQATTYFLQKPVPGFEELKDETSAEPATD

The subject of another test is COS Cell. Kind of test: COS Cell IC50 (Cell-Based Assay, procedure of WO 95/10516). Conditions: read-out: COS Cell IC50, several values in a cell are repeat determinations.
For test [1], the target named is geranylgeranyl protein transferase (Rattus norvegicus, UniProt P53610+Q04631). Nature of the test: GGPT IC50, inhibition of geranylgeranyl protein transferase, in vitro enzyme assay (procedure of WO 95/10516). Conditions: read-out: GGPTase IC50. On the procedure:
FPT IC50 (inhibition of farnesyl protein transferase, in vitro enzyme assay). and COS Cell IC50 (Cell-Based Assay) were determined following the assay procedures described in WO 95/10516, published April 20, 1995. GGPT IC50 (inhibition of geranylgeranyl protein transferase, in vitro enzyme assay), Cell Mat Assay, and anti-tumor activity (in vivo anti-tumor studies) could be determined by the assay procedures described in WO 95/10516. The disclosure of WO 95/10516 is incorporated herein by reference thereto.

Test [2] deals with farnesyl protein transferase (Homo sapiens, UniProt P49354+P49356). Kind of test: FPT IC50, inhibition of farnesyl protein transferase, in vitro enzyme assay (procedure of WO 95/10516). The conditions noted are these: read-out: FPT C50, several values in a cell are repeat determinations.

Values joined by “and” are separate entries in the source; they are usually repeats but may differ in a detail not shown here. Equal entries are not always repeated.

For the molecule `O=C(NCc1cccnc1)C1CN(C2c3ccc(Cl)cc3CCc3cc(Br)cnc32)CCN1C(=O)CCc1ccccc1` (stereo not drawn), the IC50 with Human tumor cells was greater than 1000 nM; in the test with COS Cell, 150 to 200 nM; in test [1], greater than 50000 nM; in test [2], 35 nM and 21 nM.

As for `O=C(CC1CN(C2c3ccc(Cl)cc3CCc3cc(Br)cnc32)CCN1C(=O)CCc1ccccc1)NCc1cccnc1` (stereo not drawn), the IC50 with COS Cell was 2000 nM; in test [1], greater than 500000 nM; in test [2], 1000 nM and 910 nM.

Consider `CC(C)CC(=O)N1CCN(C2c3ccc(Cl)cc3CCc3cc(Br)cnc32)CC1C(=O)NCc1cccnc1` (stereo not drawn), for which the IC50 in test [1] was greater than 100000 nM; in test [2], 7.8 nM and 6.8 nM.

In the case of `CCCCC(=O)N1CCN(C2c3ccc(Cl)cc3CCc3cc(Br)cnc32)CC1C(=O)Nc1cccnc1` (stereo not drawn), the IC50 in the test with Human tumor cells is 168 nM; in test [1] it was 31000 nM; in test [2], 19 nM and 16 nM.

For the origin of these results see patent publication EP0989983B1 (SCHERING CORPORATION, priority 1997, dated 1998).
